Measured values: ChEMBL document CHEMBL1687735, “Resistance to colistin in Acinetobacter baumannii associated with mutations in the PmrAB two-component system” (Antimicrob Agents Chemother, 2009)

How the values were obtained:
[1] = system: Acinetobacter baumannii; test: Antibacterial activity against Acinetobacter baumannii AB0057 after 1 hr; format: functional, organism-based
[2] = system: Acinetobacter baumannii; test: Antibacterial activity against Acinetobacter baumannii AB0057 at up to 4 ug/ml; format: functional, organism-based
[3] = system: Acinetobacter baumannii; test: Antibacterial activity against Acinetobacter baumannii ATCC 17978 at up to 4 ug/ml after 1 hr; format: functional
[4] = system: Acinetobacter baumannii; test: Antibacterial activity against Acinetobacter baumannii AB0057 assessed as bacterial survival at 1.4 ug/ml after 1 hr; format: functional, organism-based
[5] = system: Acinetobacter baumannii; test: Antibacterial activity against Acinetobacter baumannii AB0057 assessed as bacterial population at 1.4 ug/ml; format: functional, organism-based
[6] = system: Acinetobacter baumannii; test: Antibacterial activity against Acinetobacter baumannii AB0057 assessed as bacterial survival at pH 5.5 after 1 hr; format: functional, organism-based
[7] = system: Acinetobacter baumannii; test: Antibacterial activity against Acinetobacter baumannii AB0057 assessed as bacterial survival at pH 7.7 after 1 hr; format: functional, organism-based
[8] = system: Acinetobacter baumannii; test: Antibacterial activity against Acinetobacter baumannii ATCC 17978 assessed as bacterial survival at pH 5.5 after 1 hr; format: functional
[9] = system: Acinetobacter baumannii; test: Antibacterial activity against Acinetobacter baumannii ATCC 17978 assessed as bacterial survival at pH 7.7 after 1 hr; format: functional
[10] = system: Acinetobacter baumannii; test: Antibacterial activity against Acinetobacter baumannii AB0057 assessed as bacterial survival after 1 hr in absence of ferric chloride; format: functional, organism-based
[11] = system: Acinetobacter baumannii; test: Antibacterial activity against Acinetobacter baumannii AB0057 assessed as bacterial survival after 1 hr in presence of ferric chloride; format: functional, organism-based
[12] = system: Acinetobacter baumannii; test: Antibacterial activity against Acinetobacter baumannii ATCC 17978 assessed as bacterial survival after 1 hr in absence of ferric chloride; format: functional
[13] = system: Acinetobacter baumannii; test: Antibacterial activity against Acinetobacter baumannii ATCC 17978 assessed as bacterial survival after 1 hr in presence of ferric chloride; format: functional

COLISTIN SULFATE
Activity [1]: Dose-dependent effect
Activity [2]: tde
Activity [3]: Active
Activity [4]: 1%
Activity [5]: < 1e-05%
Survival [6]: 70%
Survival [7]: < 1%
Survival [8]: 75%
Survival [9]: < 1%
Survival [10]: 1.6%
Survival [11]: 16%
Survival [12]: 0.2%
Survival [13]: 56%

The source made the active and inactive calls. The calls are words filed in the database; no cut-off is given here.
